# Ab-14 light chain CDR variants: yeast mating affinities

Data: MIT Lincoln Laboratory AlphaSeq set, Engelhart et al. 2022, doi:10.1038/s41597-022-01779-4, as distributed in FLAb.

All variants were tested on one target, the spike HR2 peptide PDVDLGDISGINAS (SARS-CoV-2).

Ab-14 is the parent antibody, in scFv form: VH, then a (GGGGS)3 linker, then VL. The heavy chain is unchanged in all variants.
VH: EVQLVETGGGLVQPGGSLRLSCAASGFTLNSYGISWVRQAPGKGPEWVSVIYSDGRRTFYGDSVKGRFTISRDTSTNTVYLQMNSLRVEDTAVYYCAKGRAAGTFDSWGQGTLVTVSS
VL: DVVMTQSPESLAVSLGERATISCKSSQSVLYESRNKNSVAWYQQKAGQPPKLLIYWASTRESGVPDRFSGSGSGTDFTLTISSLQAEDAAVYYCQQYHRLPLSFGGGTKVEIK

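In library AAYL50, one, two or three CDR residues were substituted; doubles and triples were drawn at random. AlphaSeq pools MATa yeast showing the antibodies with MATalpha yeast showing the peptide. Mating (16 h, 30 °C) was followed by selection of diploids and sequencing of their barcodes. Scores were corrected for input abundance and mapped to Kd with protein pairs of known affinity run in the same pool. There are three technical replicates.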

Sequences are complete VL domains. The read-out is the apparent dissociation constant on a log10 scale (nM): the lower, the stronger. Replicates are averaged; those with no signal do not enter the mean. A pair that was not seen in any replicate is written "not detected"; this usually means weak binding, but a binder can also be missed. Nonspecific signal, from three strains lacking the peptide, appeared in 18% of pairings of library AAYL50, centred on 4.19 (5% of these signals below 2.99); values are not corrected for it. In this assay the parent's reference entry averaged 0.65; its copy inside this library read 1.68.

VL,"log10 Kd (nM), mean",seen in
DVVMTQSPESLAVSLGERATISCKSSQSVLYESLNKNSVAWYQQKAGQPPKLLIYWASTRESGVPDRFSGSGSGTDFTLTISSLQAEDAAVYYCQQYHRLMLLFGGGTKVEIK,3.22,2 of 3
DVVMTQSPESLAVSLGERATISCKSSQSVLYESRIKFSVEWYQQKAGQPPKLLIYWASTRESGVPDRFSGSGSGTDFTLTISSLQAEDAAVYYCQQYHRLPLSFGGGTKVEIK,5.69,1 of 3
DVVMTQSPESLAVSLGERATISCKSSQSVLYESRNLNSVAWYQQKAGQPPKLLIYWASTRESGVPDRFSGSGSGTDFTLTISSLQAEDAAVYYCQGYGRLPLSFGGGTKVEIK,2.72,3 of 3
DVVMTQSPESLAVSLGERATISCKSSQPVLYESRNKNSVAWYQQKAGQPPKLLIYWAVTRESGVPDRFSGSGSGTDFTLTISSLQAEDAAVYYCCQYHRLPLSFGGGTKVEIK,3.31,3 of 3
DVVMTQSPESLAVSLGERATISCKNSQSPLYESRNKGSVAWYQQKAGQPPKLLIYWASTRESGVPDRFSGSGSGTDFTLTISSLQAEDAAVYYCQQYHRLPLSFGGGTKVEIK,3.05,3 of 3
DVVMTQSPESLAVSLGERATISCKSSQSVLYESRNKNSVAWYQQKAGQPPKLLIYPASTREGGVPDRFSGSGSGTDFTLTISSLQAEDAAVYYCQQYHRLPLAFGGGTKVEIK,not detected,0 of 3
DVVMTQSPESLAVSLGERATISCKSSQSVLEESRNKNSVAWYQQKAGQPPKLLIYWASTYESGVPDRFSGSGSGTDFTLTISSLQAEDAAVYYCQQYHWLPLSFGGGTKVEIK,2.93,3 of 3
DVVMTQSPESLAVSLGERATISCKSSHSVLYESRNKNSVAWYQQKAGQPPKLLIYWASTRESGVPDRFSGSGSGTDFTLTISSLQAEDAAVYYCPQYHRLELSFGGGTKVEIK,not detected,0 of 3
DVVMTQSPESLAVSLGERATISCKSSQSVLYESRYKNIVAWYQQKAGQPPKLLIYWASTRESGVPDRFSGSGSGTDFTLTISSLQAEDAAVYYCQQYHRLPASFGGGTKVEIK,not detected,0 of 3
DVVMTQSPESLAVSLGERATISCKSSQSVLYESRNKNSVAWYQQKAGQPPKLLIYWASTRGSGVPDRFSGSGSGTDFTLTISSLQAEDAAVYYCAQYHRLYLSFGGGTKVEIK,not detected,0 of 3
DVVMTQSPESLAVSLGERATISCKSSQSVTYESRNKVSVAWYQQKAGQPPKLLIYWASTRESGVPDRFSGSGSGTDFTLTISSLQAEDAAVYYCQQYHRGPLSFGGGTKVEIK,4.33,2 of 3
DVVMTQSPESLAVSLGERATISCKVSQSVLYEPRAKNSVAWYQQKAGQPPKLLIYWASTRESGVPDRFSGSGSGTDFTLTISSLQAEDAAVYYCQQYHRLPLSFGGGTKVEIK,0.99,3 of 3
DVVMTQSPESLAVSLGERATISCKSSQSVLYESMNQNSVAWYQQKAGQPPKLLIYWASTRESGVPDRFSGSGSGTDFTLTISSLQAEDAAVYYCQQYHRTPLSFGGGTKVEIK,not detected,0 of 3
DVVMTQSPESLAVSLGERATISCKNSQSVLYRSRNKNSVAWYQQKAGQPPKLLIYWASTRESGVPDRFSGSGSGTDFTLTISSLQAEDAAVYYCQNYHRLPLSFGGGTKVEIK,2.58,3 of 3
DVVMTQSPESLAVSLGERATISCISSQSVLYESRNKNSVAWYQQKAGQPPKLLIYWASTVEAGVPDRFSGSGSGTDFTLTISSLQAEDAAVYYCQQYHRLPLSFGGGTKVEIK,3.09,3 of 3
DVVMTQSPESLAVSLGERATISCKSSQWVLYEIRNKNSVAWYQQKAGQPPKLLIYWASTRESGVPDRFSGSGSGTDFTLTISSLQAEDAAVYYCQQYYRLPLSFGGGTKVEIK,5.51,1 of 3
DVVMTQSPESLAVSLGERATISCKGSQSVLYESRWKNSHAWYQQKAGQPPKLLIYWASTRESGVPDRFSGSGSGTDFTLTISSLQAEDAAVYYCQQYHRLPLSFGGGTKVEIK,4.56,2 of 3
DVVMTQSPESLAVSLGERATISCKSSQSVLYESRNKNSVAWYQQKAGQPPKLLIYWASTRTSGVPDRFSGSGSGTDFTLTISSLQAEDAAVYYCQQYHRLPGSFGGGTKVEIK,1.74,3 of 3
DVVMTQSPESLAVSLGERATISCKQSQSVLYESRNKNHVAWYQQKAGQPPKLLIYWASTRESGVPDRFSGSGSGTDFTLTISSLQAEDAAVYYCQQYQRLPLSFGGGTKVEIK,0.97,3 of 3
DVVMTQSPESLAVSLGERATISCKSSQSVLYTSRIKNSVLWYQQKAGQPPKLLIYWASTRESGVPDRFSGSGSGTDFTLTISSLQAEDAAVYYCQQYHRLPLSFGGGTKVEIK,4.94,1 of 3
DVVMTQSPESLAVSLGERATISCKTSQSVLYESRNKNSVAWYQQKAGQPPKLLIYKASTRESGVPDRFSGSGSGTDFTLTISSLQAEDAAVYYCQQYWRLPLSFGGGTKVEIK,0.85,3 of 3
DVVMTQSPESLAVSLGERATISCKLVQSVLYESRNKNSVAWYQQKAGQPPKLLIYWSSTRESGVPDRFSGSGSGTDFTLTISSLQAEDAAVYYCQQYHRLPLSFGGGTKVEIK,2.17,3 of 3
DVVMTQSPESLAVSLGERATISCKSSQSVLYKSRNKNSGAWYQQKAGQPPKLLIYWASTRESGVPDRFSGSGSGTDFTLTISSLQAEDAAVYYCGQYHRLPLSFGGGTKVEIK,5.05,2 of 3

Repeated from above, the 2 best binders with a signal in all replicates:

VL,"log10 Kd (nM), mean",seen in
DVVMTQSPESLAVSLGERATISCKTSQSVLYESRNKNSVAWYQQKAGQPPKLLIYKASTRESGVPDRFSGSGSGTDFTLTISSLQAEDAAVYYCQQYWRLPLSFGGGTKVEIK,0.85,3 of 3
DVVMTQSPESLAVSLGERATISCKQSQSVLYESRNKNHVAWYQQKAGQPPKLLIYWASTRESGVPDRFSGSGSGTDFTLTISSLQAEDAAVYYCQQYQRLPLSFGGGTKVEIK,0.97,3 of 3